Screening results as filed in PubChem BioAssay.
MLL AF4-AF9 inh – blocks AF4 peptide binding to human AF9. inhibition, % at 10 µM. P42568. 350,000 compounds, 0.47% hits. AlphaScreen, biotin-AF4 peptide binding to FLAG-AF9;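 active = every replicate reaching a set inhibition limit, whatever the replicate mean, cut at about 25% in these data; inconclusive = mean inhibition reaches that limit but some replicates miss it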;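 note: 0% = plate neutral control median and 100% = total signal loss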
ARNT-TACC3 inh – disruptors of human ARNT/TACC3 interaction; Q9Y6A5; inhibition, % at 9.99 µM; 390,000 compounds, 0.66% hits; AlphaScreen His-ARNT PAS-B/GST-TACC3 binding, luminescence; TACC3 fragment carries E629A point mutation;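 active = mean inhibition of replicates at least 50% and at least half of replicates each reaching 50%; inconclusive = half or more replicates reach 50% but mean below 50%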;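 note: 0% = complete ARNT plus TACC3 wells and 100% = ARNT alone without TACC3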
S100A4 MyoIIA – inhibitors of human S100A4 binding to myosin IIA peptide | S100A4/TAMRA-MyoIIA peptide fluorescence polarization | inhibition, % at 10.7 µM | 360,000 compounds, 0.14% hits | AID 652163;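 active = mean inhibition of at least 70% across replicates, with every replicate also reaching that level; inconclusive = mean inhibition reaches 70% but some replicates fall short; inactive = mean inhibition below 70%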
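Test system – S100A4 monomer (human) · Compound – single-point compound testing · Schedule – 5 min incubation before reading · Probe or stimulus – TAMRA-labelled myosin IIA heavy-chain peptide probe, 5 nM · Benchmarks – neutral control DMSO, positive control TFP · Medium – Calcium-containing HEPES buffer, pH 7.2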
ERAP1 HTS inh – blocks human ERAP1 aminopeptidase activity; Q9NZ08; recombinant ERAP1, Leu-AMC fluorescence, 60 min; inhibition, % at 10.7 µM; 340,000 compounds, 0.15% hits;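 active = mean replicate inhibition of at least 30%, or all replicates individually reaching that 30% level; inactive = mean below 30% and not every replicate reaching it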;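 note: 0% = neutral control wells and 100% = L-leucinethiol positive control wells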
E-selectin induc – induces E-selectin expression in human endothelial cells; activation, % at 7.58 µM; HUVEC E-selectin immunofluorescence imaging; normalized: neutral wells 0, TNF-alpha wells 100; AID 686992; 260,000 compounds, 0.37% hits; P16581;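 active = mean E-selectin-positive cell signal at least 10% of the positive control, reached in at least 60% of replicates, without over 20% cell loss; inconclusive = no rule given, readout overlaps actives, possibly toxicity-flagged; inactive = the rest, including those meeting only one limit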
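Read-out: % PE-positive cells | Test system: HUVEC | Doses: One compound dose added by pin transfer | Buffer or medium: EGM-2 over gelatin coat | Signal: Immunofluorescence imaging | Benchmarks: TNF-alpha, DMSO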
UUG fidelity – modulators of yeast start codon fidelity, primary screen, whole organism, S. cerevisiae, single point, plate reader; S. cerevisiae UUG-firefly luciferase reporter, luminescence/redox ratio; activity score, % at 18.7 µM; actives 0.13% (n = 350,000); AID 602363, 2012;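 active = replicate mean at a twofold rise or more, about +100% in these data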;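 also: firefly luciferase made from a UUG start codon reports start codon fidelity; reporter light over untreated wells divided by growth signal over untreated wells; some hits fall short of that in this replicate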
* = called active by the depositor; ? = inconclusive; / = no result. Rows were chosen to be rich in hits. Some 1.3% of all compounds tested hit in one or more screens of this group.

Letter code – A = MLL AF4-AF9 inh; B = ARNT-TACC3 inh; C = S100A4 MyoIIA; D = ERAP1 HTS inh; E = E-selectin induc; F = UUG fidelity
Compound: O=C(COc1ccc(Cl)cc1)Nc1nnc(S(=O)(=O)N2CCCCCC2)s1
  A = 3 | B = -6 | C = -3 | D = 3 | E = 115* | F = -15

Compound: Cc1ccc(OCC(=O)Nc2nnc(S(=O)(=O)N3CCCCCC3)s2)cc1C
  A = 6 | B = 1 | C = -6 | D = 0 | E = 0 | F = -3

Compound: COc1cccc(S(=O)(=O)N2CC[C@@H]3[C@H](CO)Nc4ccc(-c5ccc(C#N)cc5)cc4[C@@H]32)c1
  A = / | B = -19 | C = / | D = / | E = 0 | F = -6

Compound: CN(C)CC(=O)N[C@H]1CC[C@@H](CC(=O)NCc2ccc(Cl)cc2)O[C@@H]1CO
  A = 0 | B = -21 | C = 82* | D = 3 | E = 0 | F = -2

Compound: COc1ccc(CNC(=O)C[C@@H]2CC[C@@H](NC(=O)CN(C)C)[C@H](CO)O2)cc1
  A = 1 | B = 0 | C = -4 | D = 0 | E = 1 | F = -11

Compound: O=C(C[C@H]1CC[C@@H]2[C@H](COC[C@@H](O)CN2Cc2nccs2)O1)NCc1ccc(Oc2ccccc2)cc1
  A = 2 | B = -4 | C = 8 | D = -2 | E = 0 | F = /

Compound: CC1N(C)c2cc(NC(=O)c3ccco3)c(P(=O)(Nc3ccc([N+](=O)[O-])cc3)N3CCOCC3)cc2C1(C)C (stereo not drawn)
  A = 20 | B = 3 | C = -67 | D = 7 | E = / | F = /

Compound: CC1N(C)c2cc(NC(=O)c3ccco3)ccc2C1(C)C (stereo not drawn)
  A = ? | B = 15 | C = 180* | D = 1 | E = / | F = /

Compound: C[C@@H]1CN([C@H](C)CO)C(=O)c2cc(C#CC3(O)CCCC3)cnc2O[C@@H]1CN(C)Cc1ccccn1
  A = -2 | B = 5 | C = 8 | D = -5 | E = 0 | F = /

Compound: Cc1cc(=O)n(-c2ccc(C(=O)O)cc2)[nH]1
  A = -1 | B = 50* | C = -10 | D = 6 | E = 2 | F = -9

Structures from the list above that have two or more sulfur atoms:
Letter code – A = MLL AF4-AF9 inh; B = ARNT-TACC3 inh; C = S100A4 MyoIIA; D = ERAP1 HTS inh; E = E-selectin induc; F = UUG fidelity
Compound: O=C(COc1ccc(Cl)cc1)Nc1nnc(S(=O)(=O)N2CCCCCC2)s1
  A = 3 | B = -6 | C = -3 | D = 3 | E = 115* | F = -15

Compound: Cc1ccc(OCC(=O)Nc2nnc(S(=O)(=O)N3CCCCCC3)s2)cc1C
  A = 6 | B = 1 | C = -6 | D = 0 | E = 0 | F = -3

The list goes on.
Letter code – A = MLL AF4-AF9 inh; B = ARNT-TACC3 inh; C = S100A4 MyoIIA; D = ERAP1 HTS inh; E = E-selectin induc; F = UUG fidelity
Compound: CCOC(=O)c1ccc(-n2[nH]c(-c3ccccc3)cc2=O)cc1
  A = / | B = 5 | C = / | D = / | E = / | F = 3

Compound: CCN(CC)CC(O)Cn1c2ccccc2c2ccccc21 (stereo not drawn)
  A = / | B = 11 | C = / | D = / | E = / | F = -5

Compound: CCN(CC)CC(O)Cn1c(C)c(-c2ccccc2)c2cc([N+](=O)[O-])ccc21 (stereo not drawn)
  A = 37* | B = 18 | C = 1 | D = -1 | E = / | F = -11

Compound: O=C(C[C@H]1C[C@H]2c3cc(NC(=O)c4ccc5c(c4)OCO5)ccc3O[C@H]2[C@H](CO)O1)NCc1ccc(Cl)cc1
  A = 1 | B = -13 | C = 1 | D = -5 | E = 0 | F = -11

Compound: C/C(=N\NC(=O)CSCc1ccccc1Cl)c1cc(O)ccc1O
  A = 25* | B = 12 | C = 1 | D = -2 | E = -3 | F = /

Compound: CC(=O)Nc1ccc(NC(=O)CSCc2ccccc2Cl)cc1
  A = -1 | B = -2 | C = 1 | D = 2 | E = 1 | F = -14

Compound: O=C(N[C@H]1CC[C@H](CC(=O)N2CCc3ccccc3C2)O[C@H]1CO)C1CCC1
  A = -14 | B = -30 | C = 2 | D = 0 | E = 0 | F = -13

Compound: C[C@H](CO)N1C[C@H](C)[C@@H](CN(C)S(=O)(=O)c2cn(C)cn2)Oc2ccc(NC(=O)Nc3ccc(F)cc3)cc2CC1=O
  A = / | B = / | C = / | D = / | E = 61* | F = /

Compound: Cc1noc(C)c1S(=O)(=O)N(C)C[C@H]1Oc2ccc(NC(=O)Nc3ccc(F)cc3)cc2CC(=O)N([C@H](C)CO)C[C@H]1C
  A = -5 | B = / | C = 4 | D = 3 | E = 5 | F = 25

Compound: C[C@@H]1CN([C@H](C)CO)C(=O)Cc2cc(NC(=O)Nc3ccc(F)cc3)ccc2O[C@@H]1CN(C)S(=O)(=O)c1cn(C)cn1
  A = / | B = / | C = / | D = / | E = 85* | F = /

Compound: Cc1noc(C)c1S(=O)(=O)N(C)C[C@H]1Oc2ccc(NC(=O)Nc3ccc(F)cc3)cc2CC(=O)N([C@H](C)CO)C[C@@H]1C
  A = -3 | B = / | C = -4 | D = 3 | E = 64* | F = -14

Compound: Cc1noc(C)c1NC(=O)Nc1ccc2c(c1)CC(=O)N([C@H](C)CO)C[C@H](C)[C@H](CN(C)S(=O)(=O)c1ccccc1)O2
  A = -16 | B = / | C = -64 | D = 4 | E = 47* | F = 1

Compound: C[C@H](CO)N1C[C@H](C)[C@@H](CN(C)S(=O)(=O)c2cn(C)cn2)Oc2ccc(NC(=O)Nc3ccccc3)cc2CC1=O
  A = -1 | B = -13 | C = 5 | D = 4 | E = 0 | F = 14

Compound: CCCNC(=O)[C@@H]1[C@@H](CO)[C@@H]2Cn3c(ccc(-c4ccccc4F)c3=O)[C@@H]2N1C
  A = -3 | B = / | C = -4 | D = 0 | E = 0 | F = /

Compound: C[C@@H]1CN([C@H](C)CO)C(=O)Cc2cc(NS(C)(=O)=O)ccc2O[C@H]1CN(C)S(=O)(=O)c1cn(C)cn1
  A = / | B = -1 | C = / | D = / | E = 389* | F = 0

Compound: COc1ccc(NC(=O)C(C)N2C(=O)c3ccccc3S2(=O)=O)c(OC)c1 (stereo not drawn)
  A = 0 | B = -5 | C = 2 | D = -1 | E = / | F = -5

Compound: CCOc1ccccc1NC(=O)C(C)N1C(=O)c2ccccc2S1(=O)=O (stereo not drawn)
  A = 29* | B = 3 | C = -2 | D = -2 | E = -2 | F = /

Compound: CC(C)NC(=O)N(C)C[C@H]1Oc2ccc(NC(=O)CCCN(C)C)cc2C(=O)N([C@H](C)CO)C[C@@H]1C
  A = -1 | B = -3 | C = 22 | D = -3 | E = 2 | F = -2

Compound: O=C(CCCN1C(=O)/C(=C/c2ccccc2)SC1=S)Nc1ccc(C(=O)O)c(O)c1
  A = 5 | B = 8 | C = 0 | D = 15 | E = / | F = -6

Compound: COc1ccc(C=C2SC(=S)N(CCCC(=O)Nc3ccc(C(=O)O)c(O)c3)C2=O)cc1OC
  A = 8 | B = / | C = 3 | D = 35* | E = 0 | F = -20

Compound: O=C(CCCN1C(=O)/C(=C/c2ccco2)SC1=S)Nc1cccc(C(=O)O)c1
  A = 0 | B = 5 | C = -21 | D = 32* | E = / | F = /

Compound: O=C(CCCN1C(=O)/C(=C\c2cccs2)SC1=S)Nc1cccc(C(=O)O)c1
  A = 1 | B = -13 | C = 5 | D = -1 | E = / | F = /

Compound: O=C(NCCc1ccncc1)[C@@H]1[C@@H](CO)[C@@H]2Cn3c(ccc(-c4ccncc4)c3=O)[C@@H]2N1C(=O)C1CC1
  A = -10 | B = -12 | C = -1 | D = 5 | E = 0 | F = -22

Compound: COCc1cc(C)nc(OCC(=O)N/N=C/c2ccccc2O)c1C#N
  A = -3 | B = 81* | C = -2 | D = -4 | E = / | F = /

Compound: CCOc1cc(/C=N/NC(=O)COc2nc(C)cc(COC)c2C#N)ccc1O
  A = -1 | B = 22 | C = -3 | D = 0 | E = / | F = -21

Compound: COCc1cc(C)nc(OCC(=O)N/N=C/c2cccc(OC)c2)c1C#N
  A = / | B = -2 | C = / | D = / | E = / | F = 3

Compound: COCc1cc(C)nc(OCC(=O)N/N=C/c2ccc(O)cc2O)c1C#N
  A = -3 | B = 73* | C = -1 | D = 3 | E = / | F = /

Compound: O=C(C[C@H]1C=C[C@@H](NC(=O)Nc2ccccc2)[C@@H](CO)O1)NCc1cccc(F)c1
  A = -2 | B = / | C = -3 | D = -1 | E = -1 | F = /

Compound: CCc1cc(=O)oc2cc(OC(=O)CN3C(=O)NC4(CCCC4)C3=O)ccc12
  A = -2 | B = 18 | C = -2 | D = -67 | E = 1 | F = -16

Compound: O=C(CN1C(=O)NC2(CCCC2)C1=O)Oc1ccc2ccc(=O)oc2c1
  A = -4 | B = -3 | C = -2 | D = 57* | E = / | F = -9

Compound: CC(C)NC(=O)N(C)C[C@H]1Oc2ncc(C#CCC3CCCC3)cc2C(=O)N([C@@H](C)CO)C[C@H]1C
  A = -9 | B = -33 | C = 7 | D = 1 | E = 0 | F = 15

Compound: COc1cccc(Oc2nc(N)ncc2[N+](=O)[O-])c1
  A = 1 | B = -2 | C = 1 | D = 1 | E = 29* | F = /

2 entries from above, set out differently:
Under each structure – MLL AF4-AF9 inh	ARNT-TACC3 inh	S100A4 MyoIIA	ERAP1 HTS inh	E-selectin induc	UUG fidelity
> COCc1cc(C)nc(OCC(=O)N/N=C/c2ccc(O)cc2O)c1C#N
 : -3	73*	-1	3	/	/
> CCc1cc(=O)oc2cc(OC(=O)CN3C(=O)NC4(CCCC4)C3=O)ccc12
 : -2	18	-2	-67	1	-16
